Data on 18 compounds can be found in PubChem BioAssay AID465 (The Scripps Research Institute Molecular Screening Center, 2006).

The entries are a selection whose mix differs from that of the whole data set. Activity calls are given as the source filed them.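 The calls were made as follows: active = inhibition above the mean of all tested compounds plus 3 SD (cut at about 40% in these data); inactive = the rest.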

A short description of the assay: inhibitors of PMA/ionomycin-induced NF-kB reporter, primary screen, antigen receptor NF-kB inhibitor project, cell-based, HEK-293 luciferase reporter, luminescence (AID 465).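 Also: 0% = stimulated DMSO wells and 100% = 10 µM reference inhibitor 5653914.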 Conditions: HEK-293 NF-kB luciferase reporter, at 3 µM, stronger effect = higher value.
Regarding `c1nnnn1CCn1cnnn1`, the inhibition (usually the drop in the measured response relative to a control, in per cent) is inactive: 4.2%.
In the case of `O=P(Nc1nccs1)(c1ccccc1)c1ccccc1`, the inhibition was inactive: 19.4%.
The value for `O=C(OC1CN2CCC1CC2)c1cccc(Cl)c1` (stereo not drawn) was inactive: 8.7%.
The value for `COC(=O)c1cc2c(s1)N=C(c1ccccc1)N(C)P2(=O)N1CCOCC1` (stereo not drawn) was inactive: 20.6%; that for `O=P1(Nc2nc3ccc(Cl)cc3s2)COc2ccccc2O1` (stereo not drawn) was inactive: 3.9%; that for `Cc1c2non([O-])c-2c(C)[n+](=O)[n+]1[O-]` was inactive: 18.3%.
The value for `CCc1nc2c(n1)c1c(non1O)c1c2no[n+]1[O-]` was inactive: 30.8%.
As for `O=C(COc1ccccc1)OC1CN2CCC1CC2` (stereo not drawn), the inhibition is inactive: -13.8%.
As to `COP1(=S)c2c(C)nn(CCC#N)c2N=C(c2ccc(F)cc2)N1C` (stereo not drawn), the inhibition was inactive: 9.6%.
`O=C(OC1CN2CCC1CC2)C12CC3CC(CC(C3)C1)C2` (stereo not drawn): the inhibition is inactive: 18.3%.
With `CCOP1(=S)c2c(C)nn(CCC#N)c2N=C(c2ccc(F)cc2)N1C` (stereo not drawn), the inhibition was inactive: 12.6%.
With `O=P(Nc1nccs1)(c1ccccc1)c1nc2ccccc2s1` (stereo not drawn), the inhibition is inactive: -2%.
The value for `CCOP1(=S)c2c(C)nn(CCC#N)c2N=C(c2ccccc2F)N1C` (stereo not drawn) was inactive: 15.8%.
In the case of `O=P1(Nc2ccc(Br)cn2)COc2ccccc2OC1` it was inactive: 16.9%.
With `O=P1(Nc2ncccn2)COc2ccccc2OC1`, the inhibition was inactive: 8.3%.
The value for `Cc1nn(-c2ccccc2)c2c1P(=O)(N1CCOCC1)N(C)C(c1ccccc1)=N2` (stereo not drawn) was inactive: 7.4%.
For the compound `Clc1n[nH]nc1-c1nn[nH][15n]1`, the inhibition is inactive: -9%.
Regarding `O=P1(Nc2ccccn2)COc2ccccc2OC1`, the inhibition is inactive: 6.2%.
